Results taken from patent US11406644B2, “Tropomyosin-related kinase (TRK) inhibitors” (Genzyme Corporation, priority 2013, dated 2022).

Protein sequences, listed by entry. Tags and fused reporters are not part of them. Residues count along the entry.
UniProt Q16620, 456-822: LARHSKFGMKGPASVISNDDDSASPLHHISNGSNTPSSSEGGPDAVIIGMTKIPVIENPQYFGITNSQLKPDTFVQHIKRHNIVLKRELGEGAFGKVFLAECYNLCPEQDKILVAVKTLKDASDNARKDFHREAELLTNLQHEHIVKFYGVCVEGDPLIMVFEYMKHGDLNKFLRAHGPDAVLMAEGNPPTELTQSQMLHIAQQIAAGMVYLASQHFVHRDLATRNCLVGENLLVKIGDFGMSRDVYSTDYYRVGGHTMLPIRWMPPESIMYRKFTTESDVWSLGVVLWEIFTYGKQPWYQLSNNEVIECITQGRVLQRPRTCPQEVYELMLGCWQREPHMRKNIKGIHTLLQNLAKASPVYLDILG

Tests used:
[1] = molecular target: TrkB (Homo sapiens (Human), UniProt Q16620); assay: TrkB activity, off-chip mobility shift assay (LabChip 3000); format: biochemical
From the text: Reagents and consumables were purchased from Sigma Aldrich, Carna Biosciences, or Caliper Life Sciences. All assay reaction conditions for IC50 determinations were within the linear range with respect to time and enzyme concentration. […] The LabChip 3000 separates and measures the fluorescent signal of fluorescein labeled peptide substrate and fluorescein labeled peptide product present in each well. Results are expressed as percent conversion by measuring peak height for both the substrate and product and dividing the product peak height by the sum of peak heights for both substrate and product.

[2] = test system: Male Lewis rats with PGPS knee arthritis; assay: Reactivated peptidoglycan-polysaccharide (PGPS) knee arthritis; format: in vivo, rat; conditions: 0.06 mg intra-articular on day −7
From the text: Male Lewis rats were acclimated to the testing facility for 7 days. The rats were housed in 5 per cage in shoe-box polycarbonate cages with wire tops, wood chip bedding and suspended food and water bottles.
On day −21, the male Lewis rats were randomized into treatment groups by body weight. The rats were anesthetized and injected with peptidoglycan-polysaccharide (PGPS) into the right knee to induce PGPS arthritis. Arthritis was reactivated on days 0 and 14 by an IV tail injection of PGPS.
The rats were weighed at baseline on days 0, 4, 14 and 18. Knee thickness was measured by caliper at baseline and on days 0, 2, 4, 14, 16 and 18. Gait analysis occurred on days 0-4 and 14-18, with video recording of selected animals on days 3 and 17. Gait analysis was performed by applying ink to the ventral surface of the foot and documenting weight bearing during movement across paper.
The animals were terminated at day 18. […]
Body weights, gait deficiency and caliper measurements were analyzed using a one-way analysis of variance (1-way ANOVA) with Dunnett's multiple comparison post-test. Gait scores were analyzed using a Kruskal-Wallis test (non-parametric ANOVA) with Dunn's multiple comparison post-test. Histopathology scores were analyzed using a Kruskal-Wallis test (non-parametric ANOVA) with Dunn's multiple comparison post-test.

Structure (SMILES) | IC50 [1] [nM] | knee caliper measurements ([2]; days 0, 2, 4, 16, 18) | gait scores and deficiency ([2]; first reactivation (days 1-4) and days 15, 17, 18 of second reactivation)
CCOc1cc(Cn2cnc3cc(N4CCN(C)CC4)cnc32)ccc1OCc1ccc(OC)nc1 [Ex. 3-28, 3-(3-Ethoxy-4-((6-methoxypyridin-3-yl)methoxy)benzyl)-6-(4-methylpiperazin-1-yl)-3H-imidazo[4,5-b]pyridine] | 179 | – | –
C[C@]12C=CC(=O)C=C1CC[C@H]1[C@@H]3C[C@@H](O)[C@](O)(C(=O)CO)[C@@]3(C)C[C@H](O)[C@@]12F [Triamcinolone, reference compound] | – | significantly reduced | significantly reduced
